Source: patent US20220280469A1, “PHARMACEUTICAL COMPOUND AND PREPARATION METHOD THEREFOR AND USE THEREOF” (priority 2019, published 2022)

Assays:
[1] = tested on: PANC-1 subcutaneous transplantation tumor; experiment: Anti-tumor effect in PANC-1 subcutaneous transplantation tumor model; details: for inhibition of PANC-1 subcutaneous transplantation tumor (tumor volume, tumor weight): 4 mg/kg cisplatin (effective dose), tail vein, once a week, 4 times
[2] = Toxicity in PANC-1 subcutaneous tumor mice (liver HE, blood cell analysis, blood biochemistry); format: in vivo, mouse; details: for liver damage (HE staining of liver tissue): after end of administration cycle
[3] = Pharmacokinetics and tumor targeting of Pt in tumor tissue of pancreatic cancer orthotopic transplantation model mice; format: in vivo, mouse; details: 8 mg/kg
Procedure: Mouse pancreatic cancer cells transfected with luciferase reporter genes were used to prepare mouse pancreatic cancer orthotopic transplantation models. The tumor volume of the mice were determined by injecting […] into tail veins, and the mice with similar tumor volume were selected for evaluation of systemic PK and tumor-targeting property. […] Pharmacokinetic parameters were calculated using PK Solver 2.0.

[4] = Maximum tolerated dose of cisplatin-albumin compound and cisplatin; format: in vivo, Balb/C mouse
[5] = tested on: MIA PaCa-2 pancreas orthotopic transplantation tumor; experiment: Kaplan-Meier survival in MIA PaCa-2 pancreas orthotopic transplantation model; details: once every 7 days, three times
PANC-1 cells [6] = experiment: Cell migration (scratch) experiment; format: cell-based, human; details: compared among cisplatin and compounds with different DPRs
Procedure: In the cell migration experiment, PANC-1 cells were used, cell density was set to be 50000 cells/well (a 6-well plate), and a DMEM high-glucose medium contained 10% fetal bovine serum and penicillin and streptomycin at a certain concentration. The cells were incubated in an incubator at 37° C./5% CO2, 3 duplicate wells were set for each group, and the culture system was 400 μL/well. The medium was replaced with low concentration serum medium (containing 1% FBS) for cell culturing when the confluence of cells reached 90% or more. A 1 mL pipette tip was vertically aimed to the central part of the lower end of the 6-well plate, and was then slightly pushed upwards to form a scratch. […] A picture was taken at 0 h. The mixture was incubated in an incubator at 37° C./5% CO2, and a proper time was decided according to healing degree to scan the plate with a cell imaging device. Migration area and migration rate were analyzed and calculated. Migration area=cell area at 24 h−cell area at 0 h; migration rate=migration area/cell area at 0 h; migration index=migration rate of compound treatment group/migration rate of control group.

PANC-1 cells [7] = experiment: In vitro cytotoxicity (CCK8, 48 h); format: cell-based, human; details: CCK8, n=5
MIA PaCa-2 cells = experiment: In vitro cytotoxicity (CCK8, 48 h); format: cell-based, human; details: CCK8, n=5
[8] = Particle size by dynamic light scattering; format: physicochemical
[9] = Release of cisplatin from the compound in phosphate buffer (HPLC); format: physicochemical
Procedure: The purification conditions were as follows: purification device: ÄKTA™ Purifier 100; desalting column: Hitrap Desalting 5 mL columns connected in series; eluent: deionized water. […] The pre-frozen product of the purified cisplatin-albumin compound was lyophilized using a lyophilizer, thus obtaining lyophilized powder of the purified cisplatin-albumin compound. The purified cisplatin-albumin compound was characterized for the following: particle size, electrophoretic analysis and mass spectrometry.

[10] = tested on: PANC-1 subcutaneous transplantation tumor; details: mouse, in vivo
[11] = 11 days after end of administration, 4 mg/kg

Substance: cisplatin-albumin compound 1:1
- inhibition of PANC-1 subcutaneous transplantation tumor (tumor volume, tumor weight) [1]: significant inhibition effect
- average platelet volume [2, 11]: irreversible reduction of the platelet volume
- number of platelets compared with the control group [2, 11]: reduced
- liver damage (HE staining of liver tissue) ([2]; 4 mg/kg): significant liver damage

Substance: cisplatin-albumin compound 6:1
- inhibition of PANC-1 subcutaneous transplantation tumor (tumor volume, tumor weight) [1]: significant inhibition effect; also recorded: best tumor-inhibition effect
- tumor progression (HE staining of tumor tissue) ([1]; after end of administration cycle, 4 mg/kg): inhibited
- cell proliferation of tumor tissues (Ki67) ([1]; compared with cisplatin and compounds with other DPRs): remarkably lower
- apoptosis of tumor cells (TUNEL) ([1]; compared with other groups): higher than that in other groups
- ID% (drug amount at a tumor site x 100%/injected drug amount) ([3]; tumor site): more than 25%
- survival of mice after administration ([4]; 40 mg/kg and 60 mg/kg (dose of cisplatin in compound)): all survived
- body weight after administration in MTD experiment ([4]; compound 40 and 60 mg/kg, cisplatin 15-40 mg/kg): gained weight
- MTD ([4]; tail vein, for the compound: dose of cisplatin in compound): > 60 mg/kg
- survival advantage (Kaplan-Meier), low-dose group ([5]; 1 mg/kg effective cisplatin dose): significantly higher than that of other experimental groups
- body weight of the mice in the whole treatment process ([5]; orthotopic model): not significantly reduced
- survival advantage (Kaplan-Meier) ([5]; tail vein, P<0.05 vs cisplatin 5 mg/kg): greater than that of the cisplatin group
- migration rate of PANC-1 cells (PANC-1 cells [6]): lowest
- cytotoxicity to PANC-1 (PANC-1 cells [7]): lower than that of cisplatin
- number of platelets compared with the control group [2, 11]: not significantly reduced
- liver damage (HE staining of liver tissue) ([2]; 4 mg/kg): no obvious liver damage

Substance: cisplatin-albumin compound
- cytotoxicity to MIA PaCa-2 (MIA PaCa-2 cells): lower than that of cisplatin
- average particle size (number average particle size) ([8]; dynamic light scattering): 3-10 nm
- average particle size of the reaction system ([8]; feed ratio of 24 (cisplatin to albumin)): 326 nm
- t1/2ka at tumor site ([3]; tumor site): 8.65 h
- mean retention time MRT of Pt in tumor tissues, improvement compared with cisplatin group ([3]; tumor tissue): ≥ 10 times
- release rate of cisplatin ([9]; phosphate buffer with a pH of 5.0): significantly improved
- release amount of cisplatin ([9]; phosphate buffer with a pH of 7.4, HPLC): smaller than 10%
- body weight of the mice during the administration process [10]: not significant
- renal function (blood biochemical analysis) ([2]; 11 days after administration, compared with control group): no significant change in the renal function
- tendency towards myelosuppression ([2]; from lymphocyte and neutrophil analysis, 11 days after administration): no significant tendency towards myelosuppression

Substance: cisplatin-albumin compound 12:1
- inhibition of PANC-1 subcutaneous transplantation tumor (tumor volume, tumor weight) [1]: no significant inhibition effect
- number of platelets compared with the control group [2, 11]: reduced
- liver damage (HE staining of liver tissue) ([2]; 4 mg/kg): significant liver damage

Entries after “also recorded” stand apart in the source; their conditions may differ.
